This is a selection; strong and weak results do not stand in their true shares. Potency and affinity values are given separately. Active and inactive are the calls of the source.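 How the source made its calls: active means displacement above 50% at 20 µM plus a fluorescence interference ratio under 1.5; inactive means the rest.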

This assay concerns the target Bcl-2-like protein 10 (Homo sapiens) (UniProt Q9HD36). In words: Bcl-B/TR3 peptide binding disruption – biochemical, fluorescence polarization, FITC-TR3 peptide, selectivity assay for Bfl-1 inhibitor project, primary screen (AID 748).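 Further: plate controls were wells without compound for no effect and wells lacking Bcl-B protein for full effect.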 Conditions: FP displacement of FITC-TR3 peptide from Bcl-B; at 20 µM; hits give high values.
Turning to `CC(C)CC(=O)NC(Sc1ccc(Cl)cc1)C(Cl)(Cl)Cl` (stereo not given), the displacement is inactive: -12%.

With `Oc1ccccc1CNc1ccccn1`, the displacement was inactive: -3.9%.

With `Cc1c2non([O-])c-2c(C)[n+](=O)[n+]1[O-]`, the displacement was inactive: -12.5%.

Turning to `CCOP(=O)(Nc1ccccc1)OCC`, the displacement was inactive: 4.2%.

As for `CC1CCN(C(=O)Oc2c(Cl)cc(Cl)c3cccnc23)CC1`, the displacement is inactive: -9.5%.

For `O=[N+]([O-])c1cccc2n[nH]nc12`, the displacement was inactive: 6.6%.

Turning to `CC(=O)N1C2C3N(C(C)=O)C1C1N(C(C)=O)C(C(N1C(C)=O)N3C(C)=O)N2C(C)=O`, the displacement was inactive: 0.1%.

In the case of `CCc1nc2c(n1)c1c(non1O)c1c2no[n+]1[O-]`, the displacement is inactive: -0.9%.

With `c1nnnn1CCn1cnnn1`, the displacement was inactive: 0.4%.

For `O=P(Nc1nccs1)(c1ccccc1)c1ccccc1`, the displacement is inactive: -0.5%.

For `O=C(OC1CN2CCC1CC2)c1cccc(Cl)c1` (stereo not given), the displacement is inactive: -2.6%.

Take `COC(=O)c1cc2c(s1)N=C(c1ccccc1)N(C)P2(=O)N1CCOCC1` (stereo not given): the displacement is inactive: 0%.

On to `CCC(=O)N1C2C3N(C(=O)CC)C1C1N(C(=O)CC)C(C(N1C(=O)CC)N3C(=O)CC)N2C(=O)CC`, for which the displacement is inactive: 3.5%.

Regarding `CCOC(=O)NC(Sc1ccccc1)C(Cl)(Cl)Cl` (stereo not given), the displacement was inactive: -6.8%.

For the molecule `O=P1(Nc2nc3ccc(Cl)cc3s2)COc2ccccc2O1` (stereo not given), the displacement was inactive: 12.7%.

Turning to `Cc1cccc(OCC(=O)OC2CN3CCC2CC3)c1` (stereo not given), the displacement was inactive: -3.8%.

As for `O=[N+]([O-])c1ccc2c(c1)nnn2O`, the displacement is inactive: -1.2%.

Take `CCOP1(=S)c2c(C)nn(CCC#N)c2N=C(c2ccc(F)cc2)N1C` (stereo not given): the displacement is inactive: -1.6%.

Turning to `CCOP1(=S)c2c(C)nn(CCC#N)c2N=C(c2ccccc2F)N1C` (stereo not given), the displacement was inactive: -3.7%.

Turning to `O=P(Nc1nccs1)(c1ccccc1)c1nc2ccccc2s1` (stereo not given), the displacement was inactive: 0%.

As for `Cc1ccc(OCC(=O)OC2CN3CCC2CC3)cc1` (stereo not given), the displacement was inactive: -3.6%.

With `O=P1(Nc2ccc(Br)cn2)COc2ccccc2OC1`, the displacement was inactive: 0.3%.

In the case of `O=P1(Nc2ncccn2)COc2ccccc2OC1`, the displacement is inactive: -2.5%.

`Cc1nn(-c2ccccc2)c2c1P(=O)(N1CCOCC1)N(C)C(c1ccccc1)=N2` (stereo not given): the displacement is inactive: -12%.

Regarding `Clc1n[nH]nc1-c1nn[nH][15n]1`, the displacement is inactive: 9.8%.

Regarding `O=P1(Nc2ccccn2)COc2ccccc2OC1`, the displacement was inactive: -2.4%.

As for `O=C(COc1ccccc1)OC1CN2CCC1CC2` (stereo not given), the displacement is inactive: -2.2%.

On to `COP1(=S)c2c(C)nn(CCC#N)c2N=C(c2ccc(F)cc2)N1C` (stereo not given), for which the displacement was inactive: -7.4%.

With `CCN(CC)C(=S)SC(NC=O)C(Cl)(Cl)Cl` (stereo not given), the displacement is inactive: -10.8%.

Turning to `O=C(OC1CN2CCC1CC2)C12CC3CC(CC(C3)C1)C2` (stereo not given), the displacement is inactive: -5.5%.

(Values after PubChem BioAssay AID748 (Sanford-Burnham Center for Chemical Genomics, 2007).)
